Literature values in patent US4421767A, “Compounds and methods for treating depression” (priority 1982, dated 1983).

Tests used:
MAO = settings: literature; cited from earlier work
MAO-B = settings: literature; cited from earlier work

C#CCN(C)[C@H](C)Cc1ccccc1 [L-deprenyl]
selectivity at lower versus higher dosages (MAO): selective inhibitors at lower dosages, but are not selective inhibitors at higher dosages | preferential inhibition of MAO-B (MAO-B): preferentially inhibited
